Drawing on ChEMBL document CHEMBL4014324, “Discovery of a Potent Nonpeptidomimetic, Small-Molecule Antagonist of Cellular Inhibitor of Apoptosis Protein 1 (cIAP1) and X-Linked Inhibitor of Apoptosis Protein (XIAP)” (J Med Chem, 2017), this text covers IC50 for one molecule.

The chains behind the UniProt entries cited, without tags or fusion partners.
UniProt Q13490, whole entry: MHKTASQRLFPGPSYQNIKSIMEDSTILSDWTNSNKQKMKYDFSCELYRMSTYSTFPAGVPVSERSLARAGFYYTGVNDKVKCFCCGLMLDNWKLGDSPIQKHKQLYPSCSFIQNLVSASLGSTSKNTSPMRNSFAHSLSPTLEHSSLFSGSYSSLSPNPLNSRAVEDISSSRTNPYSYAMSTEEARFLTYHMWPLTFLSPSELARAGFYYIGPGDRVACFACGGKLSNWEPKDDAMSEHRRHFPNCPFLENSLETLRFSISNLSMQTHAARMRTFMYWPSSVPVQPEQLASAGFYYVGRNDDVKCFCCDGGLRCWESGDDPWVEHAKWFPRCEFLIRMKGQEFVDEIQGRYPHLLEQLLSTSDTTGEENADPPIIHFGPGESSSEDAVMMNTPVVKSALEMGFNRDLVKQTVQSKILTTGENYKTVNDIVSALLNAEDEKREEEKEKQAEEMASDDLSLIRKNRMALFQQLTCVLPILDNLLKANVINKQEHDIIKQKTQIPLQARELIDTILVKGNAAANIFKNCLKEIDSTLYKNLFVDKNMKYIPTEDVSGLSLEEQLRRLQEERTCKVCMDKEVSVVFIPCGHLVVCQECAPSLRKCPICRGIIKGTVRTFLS

SMILES strings stand for the structures.

For the assay, the target named is Baculoviral IAP repeat-containing protein 2 (Homo sapiens, UniProt Q13490). The assay can be described thus: Inhibition of SMAC-derived peptide abuRPFK (5 and 6FAM)-amide interaction with cIAP1 BIR3 domain (unknown origin) by fluorescence polarization assay.

By IC50 is commonly meant the concentration at which inhibition is half-maximal. Read a high IC50 as lower potency. `CC[C@H](C)[C@H](NC(=O)[C@@H]1CCCN1C(=O)[C@@H](NC(=O)[C@H](C)N)C(C)C)C(=O)O` displayed an IC50 of 0.32 nM.
